A short description of this assay: Inhibition of P-gp expressed in MDCK2-MDR1 cells by calcein AM accumulation assay. The assay is classed as cell-based. To be noted: MDCK-II. A digest of the protocol:
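MDCKII cells transfected with wild-type human MDR1, seeded at 40000 cells/well and used on day 4. Washed in DPBS with 10 mM HEPES pH 7.4, then compound in the same buffer 30 min at 37 °C. Replaced with compound plus 0.5 μg/mL calcein AM for a further 20 min. Fluorescence read at Ex 485/Em 530 nm. Signal expressed relative to 5 μM LSN 335984, taken as complete inhibition; vehicle 0.25% DMSO. IC50 from 1:1 serial dilutions by variable-slope sigmoidal fit.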

The source of these data is ChEMBL document CHEMBL2086292, “Chalcogenopyrylium compounds as modulators of the ATP-binding cassette transporters P-glycoprotein (P-gp/ABCB1) and multidrug resistance protein 1 (MRP1/ABCC1)” (J Med Chem, 2012).

In the case of `O[C@@H](COc1cccc2ncccc12)CN1CCN([C@@H]2c3ccccc3[C@@H]3[C@H](c4ccccc42)C3(Cl)Cl)CC1`, the IC50 was 400 nM.

A word on the IC50: it is the concentration needed to halve the response being measured.
